From patent US20100004459A1, “2-PHENYLNICOTINIC ACID DERIVATIVE” (NIPPON ZOKI PHARMACEUTICAL CO., LTD., priority 2006, published 2010)

Protein sequences, listed by entry. Tags and fused reporters are not part of them.
UniProt P80457, whole entry: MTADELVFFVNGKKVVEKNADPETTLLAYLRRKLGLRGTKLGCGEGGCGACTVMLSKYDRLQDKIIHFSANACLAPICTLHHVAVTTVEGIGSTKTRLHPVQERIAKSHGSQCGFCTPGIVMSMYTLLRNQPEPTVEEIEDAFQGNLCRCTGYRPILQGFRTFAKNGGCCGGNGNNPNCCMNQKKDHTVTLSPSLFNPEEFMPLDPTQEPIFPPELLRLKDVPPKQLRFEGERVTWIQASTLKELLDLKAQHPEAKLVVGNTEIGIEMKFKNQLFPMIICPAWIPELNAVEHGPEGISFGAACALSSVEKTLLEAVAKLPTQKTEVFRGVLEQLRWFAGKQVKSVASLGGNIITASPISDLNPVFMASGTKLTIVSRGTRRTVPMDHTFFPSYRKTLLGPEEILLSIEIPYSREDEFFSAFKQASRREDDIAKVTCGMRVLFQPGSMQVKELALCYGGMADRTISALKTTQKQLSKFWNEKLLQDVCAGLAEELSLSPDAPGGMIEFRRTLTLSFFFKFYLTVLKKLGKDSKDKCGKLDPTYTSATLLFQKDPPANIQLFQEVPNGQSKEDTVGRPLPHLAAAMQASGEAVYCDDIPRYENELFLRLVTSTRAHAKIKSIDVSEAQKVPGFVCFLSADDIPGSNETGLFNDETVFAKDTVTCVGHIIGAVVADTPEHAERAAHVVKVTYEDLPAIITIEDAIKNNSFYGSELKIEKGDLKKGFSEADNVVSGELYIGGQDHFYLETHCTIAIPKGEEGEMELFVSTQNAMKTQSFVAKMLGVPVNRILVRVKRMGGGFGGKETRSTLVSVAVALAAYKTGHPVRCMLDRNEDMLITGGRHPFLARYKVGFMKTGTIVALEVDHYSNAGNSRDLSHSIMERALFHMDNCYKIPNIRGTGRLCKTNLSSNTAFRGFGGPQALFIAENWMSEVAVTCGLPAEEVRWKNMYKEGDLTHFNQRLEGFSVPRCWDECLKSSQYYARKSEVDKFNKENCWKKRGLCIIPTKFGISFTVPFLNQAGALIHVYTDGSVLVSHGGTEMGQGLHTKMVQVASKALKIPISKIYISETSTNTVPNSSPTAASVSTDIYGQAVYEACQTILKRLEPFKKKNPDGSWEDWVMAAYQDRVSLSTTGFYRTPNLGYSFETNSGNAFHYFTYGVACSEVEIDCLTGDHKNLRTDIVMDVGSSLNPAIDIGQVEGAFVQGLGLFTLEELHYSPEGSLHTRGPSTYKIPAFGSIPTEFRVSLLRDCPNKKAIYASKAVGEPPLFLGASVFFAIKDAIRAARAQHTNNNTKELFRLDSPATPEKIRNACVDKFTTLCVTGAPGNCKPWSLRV

Molecular target: xanthine oxidase (Bos taurus, UniProt P80457)
Test: Test for xanthine oxidase inhibitory activity
Conditions: xanthine oxidase derived from milk (Sigma); substrate xanthine; uric acid production at OD 292 nm, 37° C.
Experimental: Evaluation of inhibitory activity of the present invention to xanthine oxidase was conducted using xanthine as a substrate by measuring the amount of uric acid produced by xanthine oxidase which is an oxidizing enzyme therefor. Thus, xanthine oxidase (0.01 unit/L, 20 μL/well; derived from milk; manufactured by Sigma), diethylenetriamine pentaacetate (0.01 mol/L, 20 μL/well), phosphate buffer (20 μL/well), distilled water (100 μL/well) and a diluted solution (20 μL/well) of a test substance were mixed in a 96-well quartz microplate. After preincubating for 5 minutes in a microplate spectrophotometer warmed at 37° C., xanthine (1 mmol/L, 20 μL/well) was added. The changes with elapse of time in OD 292 nm based on the production of uric acid was measured using a microplate spectrophotometer warmed at 37° C. whereby the initial reaction velocity was measured. Xanthine oxidase inhibitory activity was calculated by the following formula and concentration of the test substance for 50% suppression (IC50 value) was calculated.
Inhibition Rate(%)={[(Initial Reaction Velocity of the Reaction Control)-(Initial Reaction Velocity upon Addition of Test Substance)]/[Initial Reaction Velocity of the Reaction Control]}×100

## N#Cc1cc(-c2ncccc2C(=O)O)ccc1OCCCOc1ccccc1
  IC50: 0.034 µM
